Measurements: patent US20260125649A1, “MEDIUM COMPOSITION AND METHOD FOR CULTURING MESENCHYMAL STEM CELLS” (ACADEMIA SINICA, priority 2018, published 2026)

Molecular target: T1, EGFR (Tyr845) (Homo sapiens, UniProt P00533)
T1 construct: host or cells: human primary bone marrow mesenchymal stem cells (BMMSCs)
Assay: EGFR phosphorylation (antibody array, Western blotting)
Format: cell-based
Details: pretreatment with AG1478
Description: Phospho-EGFR (Tyr845) was detected by Western blotting. […] After treatment, cell cycle progression was investigated by flow cytometry with PI staining. Fraction of cells in each phase (G1, S, G2/M) of the cell cycle was evaluated. Cells that expressed EGFR shRNA or shLuc were treated with EpEX for 18 h. After treatment, cell cycle progression was investigated by flow cytometry with PI staining. Fraction of cells in each phase (G1, S, G2/M) of the cell cycle was evaluated. […] The protein expression of cell cycle regulators (cyclin D1, cyclin D2, cyclin E1) and pluripotency factors (Oct4, Sox2, c-Myc, Lin28) was examined by Western blotting. MSCs expressing EGFR shRNA were stimulated by EpEX. After treatment, the protein expression of cell cycle regulators (cyclin D1, cyclin E1, CDK4 and CDK9) and pluripotency factors (Oct4, in Sox2, c-Myc, and Lin 28) was examined by Western blotting. […] After treatment, the gene expression of pluripotency factors (Oct4, Sox2, c-Myc, Lin28 and EpCAM) was examined by qPCR.
FIG. 8. EpEX and EGF induce the phosphorylation of EGFR and STAT3. MSCs were pretreated with or without an EGFR inhibitor, AG1478, and followed by the treatment with either EGF, EpEX, or co-treated with EGF and EpEX at indicated time. The phosphorylation of EGFR (Tyr845) and STAT3 (Tyr705) were examined by Western blotting with specific antibodies. […]

effect on activation of EGFR by either EGF or EpEX: can attenuate
SMILES: COc1cc2ncnc(Nc3cccc(Cl)c3)c2cc1OC [AG1478, reference compound]
